Measured values reported in patent publication US20110021524A1, “COMPOSITIONS AND METHODS FOR TREATING CANCERS” (IRM LLC, priority 2008, published 2011).

Sequences of proteins named here, by UniProt entry; tags and fusion partners are left off. Residues count along the entry.
UniProt P00519, 28-1130 limits assumed: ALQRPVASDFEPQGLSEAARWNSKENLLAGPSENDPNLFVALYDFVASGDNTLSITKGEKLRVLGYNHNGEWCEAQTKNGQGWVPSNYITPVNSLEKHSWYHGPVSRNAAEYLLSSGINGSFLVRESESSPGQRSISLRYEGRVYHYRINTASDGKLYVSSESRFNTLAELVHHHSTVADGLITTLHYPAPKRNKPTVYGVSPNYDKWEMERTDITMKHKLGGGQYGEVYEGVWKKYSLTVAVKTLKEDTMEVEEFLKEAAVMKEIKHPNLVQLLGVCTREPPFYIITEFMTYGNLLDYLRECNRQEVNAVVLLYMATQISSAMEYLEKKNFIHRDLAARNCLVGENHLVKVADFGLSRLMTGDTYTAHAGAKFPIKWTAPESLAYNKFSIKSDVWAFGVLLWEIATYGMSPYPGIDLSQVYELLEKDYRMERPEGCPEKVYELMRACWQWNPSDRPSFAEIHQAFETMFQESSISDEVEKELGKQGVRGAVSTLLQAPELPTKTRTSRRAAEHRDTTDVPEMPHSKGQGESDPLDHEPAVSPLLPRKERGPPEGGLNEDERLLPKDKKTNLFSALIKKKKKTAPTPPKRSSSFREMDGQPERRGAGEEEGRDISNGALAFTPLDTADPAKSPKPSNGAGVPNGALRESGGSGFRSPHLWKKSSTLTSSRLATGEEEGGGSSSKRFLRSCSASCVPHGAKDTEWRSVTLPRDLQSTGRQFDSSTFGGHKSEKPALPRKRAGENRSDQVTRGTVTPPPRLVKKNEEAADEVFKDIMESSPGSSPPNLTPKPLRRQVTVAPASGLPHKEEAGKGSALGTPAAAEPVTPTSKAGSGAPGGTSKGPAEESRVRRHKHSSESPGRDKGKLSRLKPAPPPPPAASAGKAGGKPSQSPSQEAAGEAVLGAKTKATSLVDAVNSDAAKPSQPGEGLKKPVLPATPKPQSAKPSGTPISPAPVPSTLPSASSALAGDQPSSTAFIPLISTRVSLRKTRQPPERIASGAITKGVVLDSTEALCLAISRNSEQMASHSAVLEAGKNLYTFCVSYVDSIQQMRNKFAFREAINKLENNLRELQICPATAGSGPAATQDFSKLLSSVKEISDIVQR

Target: Bcr-Abl (Homo sapiens, UniProt P00519)
Assay: BCR-ABL activity of cis/trans conformation analogues (Table 4)
Details: read-out: IC50 Bcr-Abl

Row | SMILES | IC50 [nM]
1 | FC(F)(F)Oc1ccc(Nc2cc(NCCN3CCOCC3)ncn2)cc1 | 810
2 | FC(F)(F)Oc1ccc(Nc2nccc(NCCN3CCOCC3)n2)cc1 | > 10000
3 | Cc1c(NCCN2CCOCC2)ncnc1Nc1ccc(OC(F)(F)F)cc1 | 970
4 | FC(F)(F)Oc1ccc(Nc2ncnc(NCCN3CCOCC3)n2)cc1 | > 10000
